Key:
[1] = target: T1, Epidermal growth factor receptor (Homo sapiens, UniProt P00533); assay: Inhibition of erbB1 fusion protein expressed in baculovirus by ELISA
[2] = target: T1, Epidermal growth factor receptor; assay: Inhibition of EGF stimulated human erbB1 autophosphorylation in NIH3T3 cells

Chains of the proteins cited; added tags and fusions are not shown.
UniProt P00533, whole entry: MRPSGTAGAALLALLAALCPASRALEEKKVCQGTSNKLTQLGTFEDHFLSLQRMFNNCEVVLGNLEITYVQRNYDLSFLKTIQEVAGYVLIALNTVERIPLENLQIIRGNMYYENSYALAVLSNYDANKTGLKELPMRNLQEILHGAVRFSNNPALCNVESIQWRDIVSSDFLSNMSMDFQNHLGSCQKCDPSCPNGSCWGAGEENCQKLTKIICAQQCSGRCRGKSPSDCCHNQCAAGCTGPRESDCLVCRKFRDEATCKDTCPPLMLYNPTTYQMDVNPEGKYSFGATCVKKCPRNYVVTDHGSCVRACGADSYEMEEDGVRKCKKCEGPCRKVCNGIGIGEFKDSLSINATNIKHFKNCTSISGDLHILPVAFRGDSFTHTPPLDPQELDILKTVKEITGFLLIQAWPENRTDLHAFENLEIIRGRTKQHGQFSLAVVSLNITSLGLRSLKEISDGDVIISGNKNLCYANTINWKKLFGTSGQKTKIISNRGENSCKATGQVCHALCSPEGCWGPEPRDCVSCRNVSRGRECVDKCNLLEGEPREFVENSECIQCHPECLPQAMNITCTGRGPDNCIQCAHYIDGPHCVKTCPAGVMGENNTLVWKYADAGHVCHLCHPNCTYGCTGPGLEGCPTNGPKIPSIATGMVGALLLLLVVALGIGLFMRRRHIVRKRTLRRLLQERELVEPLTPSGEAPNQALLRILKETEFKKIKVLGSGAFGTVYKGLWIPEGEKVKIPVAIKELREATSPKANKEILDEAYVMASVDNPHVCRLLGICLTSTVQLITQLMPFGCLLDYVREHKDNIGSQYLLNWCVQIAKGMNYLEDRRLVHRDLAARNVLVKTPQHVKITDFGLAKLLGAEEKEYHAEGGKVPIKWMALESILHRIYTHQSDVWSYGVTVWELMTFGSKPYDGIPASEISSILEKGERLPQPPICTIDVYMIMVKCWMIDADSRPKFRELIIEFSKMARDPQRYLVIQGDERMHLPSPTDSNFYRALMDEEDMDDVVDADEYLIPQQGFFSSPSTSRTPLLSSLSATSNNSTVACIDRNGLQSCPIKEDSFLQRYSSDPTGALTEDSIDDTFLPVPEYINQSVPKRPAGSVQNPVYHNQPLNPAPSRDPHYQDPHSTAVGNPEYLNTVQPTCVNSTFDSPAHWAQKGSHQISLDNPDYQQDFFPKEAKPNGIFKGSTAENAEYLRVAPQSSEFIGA

CC(C)N(CC#CC(=O)Nc1ccc2ncnc(Nc3ccc(F)c(Cl)c3)c2c1)C(C)C
IC50 [1]: 4.2 nM
IC50 [2]: 11 nM

Reference: ChEMBL document CHEMBL1138126, “Tyrosine kinase inhibitors. 19. 6-Alkynamides of 4-anilinoquinazolines and 4-anilinopyrido[3,4-d]pyrimidines as irreversible inhibitors of the erbB family of tyrosine kinase receptors” (J Med Chem, 2006)
